Here are results for 30 compounds from ChEMBL document CHEMBL4406833 (Eur J Med Chem, 2019).

Sequences of proteins named here, by UniProt entry; tags and fusion partners are left off.
UniProt P14902, whole entry, looked up: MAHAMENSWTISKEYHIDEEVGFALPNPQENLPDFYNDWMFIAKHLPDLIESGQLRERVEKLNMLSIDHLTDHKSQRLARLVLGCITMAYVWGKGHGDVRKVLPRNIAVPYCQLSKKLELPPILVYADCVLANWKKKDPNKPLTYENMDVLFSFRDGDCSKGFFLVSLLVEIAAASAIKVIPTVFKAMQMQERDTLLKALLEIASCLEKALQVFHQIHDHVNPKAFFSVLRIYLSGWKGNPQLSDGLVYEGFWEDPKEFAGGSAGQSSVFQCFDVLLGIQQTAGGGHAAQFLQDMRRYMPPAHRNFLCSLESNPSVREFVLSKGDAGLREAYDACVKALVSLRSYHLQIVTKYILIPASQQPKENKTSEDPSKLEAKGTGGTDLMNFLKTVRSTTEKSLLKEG
UniProt Q6ZQW0, whole entry, looked up: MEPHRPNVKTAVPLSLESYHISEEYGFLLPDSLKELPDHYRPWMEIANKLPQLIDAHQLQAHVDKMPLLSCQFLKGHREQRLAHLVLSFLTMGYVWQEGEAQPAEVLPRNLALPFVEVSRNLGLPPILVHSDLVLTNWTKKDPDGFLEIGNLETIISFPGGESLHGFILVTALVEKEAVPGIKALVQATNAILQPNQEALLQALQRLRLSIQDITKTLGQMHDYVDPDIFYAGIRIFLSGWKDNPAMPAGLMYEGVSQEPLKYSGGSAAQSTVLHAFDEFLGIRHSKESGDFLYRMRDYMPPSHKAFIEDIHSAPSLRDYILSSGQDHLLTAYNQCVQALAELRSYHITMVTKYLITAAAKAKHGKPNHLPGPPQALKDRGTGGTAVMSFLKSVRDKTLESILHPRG
UniProt P48775, whole entry, looked up: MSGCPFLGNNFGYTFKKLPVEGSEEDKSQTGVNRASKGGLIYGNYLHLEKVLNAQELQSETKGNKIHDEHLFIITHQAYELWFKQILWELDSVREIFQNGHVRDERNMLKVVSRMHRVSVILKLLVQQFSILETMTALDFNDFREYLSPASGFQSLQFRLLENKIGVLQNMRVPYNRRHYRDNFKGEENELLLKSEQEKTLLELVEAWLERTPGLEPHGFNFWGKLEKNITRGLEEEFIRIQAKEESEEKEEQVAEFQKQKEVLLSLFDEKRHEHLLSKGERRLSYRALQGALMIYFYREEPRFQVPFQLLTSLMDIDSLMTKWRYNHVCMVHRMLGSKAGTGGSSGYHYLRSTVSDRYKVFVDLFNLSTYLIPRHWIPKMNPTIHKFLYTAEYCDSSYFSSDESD

For the first experiment, the target named is Indoleamine 2,3-dioxygenase 1 (Homo sapiens, UniProt P14902). The following applies: hela.
Turning to `CC(C)OP(C)(=O)NCCNc1nonc1/C(=N/O)Nc1ccc(F)c(Br)c1` (stereo unspecified), the half-maximal inhibitory concentration (IC50) is 25 nM. On the same count and under the same terms, for `CCOP(=O)(CC)NCCNc1nonc1/C(=N/O)Nc1ccc(F)c(Br)c1` (stereo unspecified) the value was 20.8 nM; for `COP(C)(=O)NCCNc1nonc1/C(=N/O)Nc1ccc(F)cc1` (stereo unspecified), 850 nM; for `CCOP(C)(=O)NCCNc1nonc1/C(=N/O)Nc1ccc(F)c(Br)c1` (stereo unspecified), 19.1 nM. The same measure, in the same setting: for `COP(C)(=O)NCCCNc1nonc1/C(=N/O)Nc1cccc(Br)c1` (stereo unspecified) the value was 24 nM; for `COP(C)(=O)N1CCN(c2nonc2/C(=N/O)Nc2ccc(F)c(Br)c2)CC1` (stereo unspecified), greater than 1000 nM. The same measure, in the same setting: for `COP(C)(=O)N1CCCC(Nc2nonc2/C(=N/O)Nc2ccc(F)c(Br)c2)C1` (stereo unspecified) the value was 148 nM; for `CCOP(=O)(CC)NCCCNc1nonc1/C(=N/O)Nc1ccc(F)c(Br)c1` (stereo unspecified), 44 nM. In turn, `CCCP(=O)(OCC)N1CCC(Nc2nonc2/C(=N/O)Nc2ccc(F)c(Br)c2)CC1` (stereo unspecified) had a half-maximal inhibitory concentration (IC50) greater than 200 nM. For the compound `CCOP(=O)(CC)N1CCC(Nc2nonc2/C(=N/O)Nc2ccc(F)c(Br)c2)CC1` (stereo unspecified), the IC50 is greater than 200 nM.

Take `COP(C)(=O)NCCNc1nonc1/C(=N/O)Nc1cccc(Br)c1` (stereo unspecified): inhibition was half-maximal at 10.5 nM (IC50). Still for that read-out and setting: the result for `CCOP(C)(=O)N1CCC(Nc2nonc2/C(=N/O)Nc2ccc(F)c(Br)c2)CC1` (stereo unspecified) reads greater than 200 nM; that for `COP(C)(=O)N1CCC(Nc2nonc2/C(=N/O)Nc2ccc(F)c(Br)c2)C1` (stereo unspecified), 104 nM. As to `COP(C)(=O)NC1CCCN(c2nonc2/C(=N/O)Nc2ccc(F)c(Br)c2)C1` (stereo unspecified), the 50% inhibitory concentration (IC50) is greater than 1000 nM. Still for that read-out and setting: for `CCOP(=O)(CC)NCCNc1nonc1/C(=N/O)Nc1cccc(Br)c1` (stereo unspecified) the value was 14.6 nM. The same measure, in the same setting: for `COP(C)(=O)NCCNc1nonc1/C(=N/O)Nc1ccc(F)c(C(F)(F)F)c1` (stereo unspecified) the value was 17.1 nM; for `COP(C)(=O)NCCNc1nonc1/C(=N/O)Nc1cccc(C)c1` (stereo unspecified), 94 nM. `CCCP(=O)(NCCCNc1nonc1/C(=N/O)Nc1ccc(F)c(Br)c1)OCC` (stereo unspecified) gave a concentration for half-maximal inhibition (IC50) of 143 nM. This IC50 lies about 1.5-fold higher than the previous one. Same read-out and setting: for `CCCP(=O)(NCCNc1nonc1/C(=N/O)Nc1ccc(F)c(Br)c1)OCC` (stereo unspecified) the value was 37.2 nM.

Consider `COP(C)(=O)NCCNc1nonc1/C(=N/O)Nc1ccc(F)c(Br)c1` (stereo unspecified), for which inhibition was half-maximal at 10.1 nM (IC50). The compound `COP(C)(=O)NCCNc1nonc1/C(=N/O)Nc1ccc(F)c(C)c1` (stereo unspecified) showed a concentration for half-maximal inhibition (IC50) of 23 nM. On the same count and under the same terms, the result for `COP(C)(=O)NCCNc1nonc1/C(=N/O)Nc1ccc(F)c(Cl)c1` (stereo unspecified) reads 17.9 nM. On the same count and under the same terms, the result for `COP(C)(=O)NCCNc1nonc1/C(=N/O)Nc1cccc(C#N)c1` (stereo unspecified) reads 36 nM; that for `COP(C)(=O)NCCNc1nonc1/C(=N/O)Nc1ccc(F)c(C#N)c1` (stereo unspecified), 24 nM. Same read-out and setting: for `COP(C)(=O)NCCNc1nonc1/C(=N/O)Nc1cccc(C(F)(F)F)c1` (stereo unspecified) the value was 21 nM. For the compound `COP(C)(=O)NC1CCN(c2nonc2/C(=N/O)Nc2ccc(F)c(Br)c2)CC1` (stereo unspecified), the IC50 was greater than 1000 nM. The same measure, in the same setting: the result for `COP(C)(=O)NCCCNc1nonc1/C(=N/O)Nc1ccc(F)c(Cl)c1` (stereo unspecified) reads 35 nM; that for `COP(C)(=O)NCCNc1nonc1/C(=N/O)Nc1cccc(Cl)c1` (stereo unspecified), 14.4 nM. The compound `COP(C)(=O)NCCCCNc1nonc1/C(=N/O)Nc1ccc(F)c(Br)c1` (stereo unspecified) gave an IC50 of 18.9 nM. The compound `COP(C)(=O)NCCCCCNc1nonc1/C(=N/O)Nc1ccc(F)c(Br)c1` (stereo unspecified) returned an IC50 of 26 nM.

The target of the next experiment is Indoleamine 2,3-dioxygenase 2 (Homo sapiens, UniProt Q6ZQW0).
Settings: not given
`CCOP(=O)(CC)NCCNc1nonc1/C(=N/O)Nc1ccc(F)c(Br)c1` (stereo unspecified) came in with a concentration for half-maximal inhibition (IC50) of 280 nM. In the case of `COP(C)(=O)NCCNc1nonc1/C(=N/O)Nc1ccc(F)c(Br)c1` (stereo unspecified), half-maximal inhibition (IC50) was put at 490 nM. This IC50 is about 1.8-fold higher than that of the compound before.

Regarding `COP(C)(=O)NCCCCNc1nonc1/C(=N/O)Nc1ccc(F)c(Br)c1` (stereo unspecified), inhibition was half-maximal at 590 nM (IC50). This IC50 and that of the compound before are within 1.5-fold of each other.

A further experiment has as its target Tryptophan 2,3-dioxygenase (Homo sapiens, UniProt P48775).
Settings: not given
Compound `CCOP(=O)(CC)NCCNc1nonc1/C(=N/O)Nc1ccc(F)c(Br)c1` (stereo unspecified) showed a 50% inhibitory concentration (IC50) of 2.54 µM. This lies in the single-digit micromolar range. Still for that read-out and setting: for `COP(C)(=O)NCCNc1nonc1/C(=N/O)Nc1ccc(F)c(Br)c1` (stereo unspecified) the value was 3.96 µM. Still for that read-out and setting: the result for `COP(C)(=O)NCCCCNc1nonc1/C(=N/O)Nc1ccc(F)c(Br)c1` (stereo unspecified) reads 3.32 µM.
